Reference: EP0073711A1, “Salts of 2-oxopentane-1,5-dicarboxylic acid, their preparation and pharmaceutical preparations containing these salts” (S.A. D[…] LEBAS (Société Anonyme), priority 1981, dated 1983)

Key:
souris = assay: Acute toxicity (DL50); format: in vivo
Excerpt: On a vérifié que les doses létales 50 (DL50) du sel acide de calcium de l'acide 2-oxo-1,5 pentane dioïque sont, chez la souris, de 10g par kg dans le cas d'une administration orale et de 2g par kg dans le cas d'une administration intrapéritonéale.

patient = assay: Clinical test: corrective effects on hypoxia (chamber, 12,5% O2); format: in vivo, homme; details: 4g par jour per os for 8 days, compared with piracétam
Excerpt: 1. Effets correctifs du sel acide de calcium de l'acide 2-oxo 1,5-pentane dioïgue sur l'hypoxie
Le test est réalisé sur le patient après le passage de celui-ci en caisson sous une hypoxie à 12,5% d'O2.

[1] = Solubility in water at 20°C; format: physicochemical; details: calcium salt in the trihydrate state
Method: La solubilité de ce sel à l'état trihydraté, dans l'eau à 20°C est de 9% en poids.
La solubilité du sel de lithium, dans l'eau à 20°C est de 5,5 % en poids.

[2] = test system: système nerveux central de la souris; assay: Rotarod test (rotating cylinder) after chlorpromazine; format: in vivo
Excerpt: Activité du sel acide de calcium de l'acide 2-oxo-1,5- pentane dioîque sur le système nerveux central de la souris.
3. Test du "rotarod" (cylindre tournant)
Dans ce test, la souris tourne sur un cylindre animé d'un mouvement rotatif, perd l'équilibre et tombe après administration de chlorpromazine (CPZ).

sel de calcium acide de l'acide 2-oxo-1,5- pentane dioïque
doses létales 50 (DL50) (souris; administration intrapéritonéale): 2 g par kg
doses létales 50 (DL50) (souris; administration orale): 10 g par kg
effets sur les tracés des électrocardiogrammes et encéphalogrammes, le comportement et la thymie (patient): plus nets
solubilité dans l'eau à 20°C [1]: 9 % en poids
déséquilibre moteur induit par le CPZ [2]: réduction du déséquilibre moteur
